From patent US20090304746A1 (priority 1993, published 2009) come the findings set out here.

Protein sequences, listed by entry. Tags and fused reporters are not part of them. Lines headed by an entry give the natural chain unless they say otherwise; changes in a name come on top.
UniProt P01889: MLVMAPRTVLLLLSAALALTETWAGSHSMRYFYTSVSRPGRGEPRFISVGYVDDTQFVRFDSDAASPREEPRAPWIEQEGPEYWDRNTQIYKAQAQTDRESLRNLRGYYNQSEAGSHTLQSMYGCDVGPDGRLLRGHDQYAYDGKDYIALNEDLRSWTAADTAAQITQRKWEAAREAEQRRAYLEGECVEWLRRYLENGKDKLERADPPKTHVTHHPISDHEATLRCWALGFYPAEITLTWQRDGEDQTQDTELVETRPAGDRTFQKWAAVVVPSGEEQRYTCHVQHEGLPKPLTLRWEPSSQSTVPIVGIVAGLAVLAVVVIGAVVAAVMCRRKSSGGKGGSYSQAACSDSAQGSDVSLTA
UniProt P04439: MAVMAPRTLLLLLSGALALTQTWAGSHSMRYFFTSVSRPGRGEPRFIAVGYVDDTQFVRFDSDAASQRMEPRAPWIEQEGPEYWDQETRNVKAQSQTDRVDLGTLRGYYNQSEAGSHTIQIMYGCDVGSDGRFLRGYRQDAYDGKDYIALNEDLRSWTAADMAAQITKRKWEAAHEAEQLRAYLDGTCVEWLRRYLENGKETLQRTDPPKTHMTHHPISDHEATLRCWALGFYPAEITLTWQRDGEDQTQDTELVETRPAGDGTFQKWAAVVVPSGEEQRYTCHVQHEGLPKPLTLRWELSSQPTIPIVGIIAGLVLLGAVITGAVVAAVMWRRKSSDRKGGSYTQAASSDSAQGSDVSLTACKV

Molecules are shown by their SMILES. Bounds are passed on as bounds.

In one experiment the target is HLA-B*3501 (Homo sapiens, UniProt P01889, A329T/A93T/A95T/C349S/D201E/D98Y/E176V/E187L/E204Q/E69T/I218V/K202T/L119I/Q94N/R155S/R180L/S121R/S35A/S48A/T118I/V127L/V306I/V36M/Y140S/Y91F). The experiment can be described thus: HLA class I binding assay, B*3501.
For the next experiment, the target named is HLA-B*5401 (Homo sapiens, UniProt P01889, A329T/C349S/D138N/D201E/E176V/E187T/E204Q/E69G/I76V/K202T/L119W/R155S/R180L/S121T/S35A/S48A/V127L/V306I/V36M/Y140L). Kind of experiment: HLA class I binding assay, B*5401.
The next experiment deals with HLA-B*5301 (Homo sapiens, UniProt P01889, A329T/A93T/A95T/C349S/D201E/D98Y/E176V/E187L/E204Q/E69T/G107R/I218V/K202T/L105A/L119I/N104I/Q94N/R106L/R155S/R180L/S101N/S121R/S35A/S48A/T118I/V127L/V306I/V36M/Y140S/Y91F). The experiment can be described thus: HLA class I binding assay, B*5301.
The target in another experiment is HLA-A*3101 (Homo sapiens, UniProt P04439, A270S/D185E/E176V/E277Q/F33T/G231S/G80R/H175R/I121M/I218V/I322F/K168Q/L300P/L318F/M331R/P217A/Q94H/R138Q/T323A/T345S/T97I/V358M). Kind of experiment: HLA class I binding assay, A*3101.
A further experiment addresses HLA-A*3301 (Homo sapiens, UniProt P04439, A270S/D185E/E176V/E277Q/E87N/F33T/G231S/H175R/I121M/I218V/I322F/K168Q/K210R/L300P/L318F/M331R/P217A/Q86R/Q94H/R138Q/T323A/T345S/T97I/V358M/Y195H). The experiment can be described thus: HLA class I binding assay, A*3301.
The target in the next experiment is HLA-A*6801 (Homo sapiens, UniProt P04439, A269V/D185E/E176V/E277Q/E87N/F33Y/G231S/I121M/I166T/I218V/L180W/L300P/L318F/N151K/P208A/P217A/Q86R/R169H/T345S). The experiment can be described thus: HLA class I binding assay, A*6801.

The term IC50 denotes the point on the concentration scale where inhibition reaches its midpoint. Higher therefore signals weaker potency in that assay. Consider `N=C(N)NCCC[C@H](NC(=O)[C@@H]1CCCN1C(=O)[C@@H](N)CO)C(=O)NCC(=O)N[C@@H](CO)C(=O)N[C@@H](CCCNC(=N)N)C(=O)N1CCC[C@H]1C(=O)N[C@@H](CO)C(=O)N[C@@H](Cc1c[nH]c2ccccc12)C(=O)O` [Peptide 15.0042], for which the IC50 at HLA-B*3501, at HLA-B*5401 and at HLA-B*5301 was over 30 µM throughout.

As to `CC(C)C[C@H](NC(=O)[C@@H](NC(=O)[C@@H](NC(=O)[C@H](Cc1ccccc1)NC(=O)[C@H](CO)NC(=O)[C@H](CS)NC(=O)[C@@H]1CCCN1C(=O)[C@@H](N)CC(C)C)[C@@H](C)O)[C@@H](C)O)C(=O)N1CCC[C@H]1C(=O)N[C@@H](C)C(=O)O` [Peptide 16.0187], the IC50 at HLA-B*5301 was over 30 µM.

On HLA-A*3101, `CSCC[C@H](NC(=O)[C@H](Cc1ccc(O)cc1)NC(=O)[C@H](C)NC(=O)CNC(=O)[C@H](Cc1ccccc1)NC(=O)CNC(=O)[C@H](CC(C)C)NC(=O)[C@@H](N)[C@@H](C)O)C(=O)N[C@@H](CO)C(=O)N[C@@H](CCCCN)C(=O)O` [Peptide 1073.14] showed an IC50 of over 30 µM.

As for `CC(C)C[C@H](NC(=O)[C@@H](N)Cc1c[nH]cn1)C(=O)N[C@@H](Cc1c[nH]cn1)C(=O)N[C@@H](C)C(=O)N1CCC[C@H]1C(=O)N[C@H](C(=O)NCC(=O)N[C@@H](CO)C(=O)NCC(=O)N[C@@H](CCCCN)C(=O)O)[C@@H](C)O` [Peptide 1073.16], the IC50 on HLA-A*3301 and on HLA-A*3101 was over 30 µM each time.

Turning to `CC(C)[C@H](NC(=O)CNC(=O)[C@H](CCCNC(=N)N)NC(=O)[C@@H](NC(=O)[C@H](CS)NC(=O)[C@@H](NC(=O)[C@H](C)N)C(C)C)[C@@H](C)O)C(=O)N[C@@H](C)C(=O)N[C@@H](CCCCN)C(=O)O` [Peptide 1090.23], the IC50 at HLA-A*3301 and at HLA-A*6801 was over 30 µM throughout.

As for `CC(C)C[C@H](NC(=O)[C@@H]1CCCN1C(=O)[C@H](CS)NC(=O)CNC(=O)[C@H](Cc1c[nH]cn1)NC(=O)[C@@H](NC(=O)[C@@H](NC(=O)[C@@H]1CCCN1C(=O)[C@@H]1CCCN1)C(C)C)C(C)C)C(=O)O` [Peptide 1292.17], the IC50 on HLA-B*3501, at HLA-B*5401 and at HLA-B*5301 was over 30 µM each time.
